Data as given in ChEMBL document CHEMBL5223149, “The Emerging Landscape of Small-Molecule Therapeutics for the Treatment of Huntington's Disease” (J Med Chem, 2022).

Sequences of proteins named here, by UniProt entry; tags and fusion partners are left off.
Huntingtin (Homo sapiens), P42858, UniProt P42858, whole entry, looked up, stated change not applied: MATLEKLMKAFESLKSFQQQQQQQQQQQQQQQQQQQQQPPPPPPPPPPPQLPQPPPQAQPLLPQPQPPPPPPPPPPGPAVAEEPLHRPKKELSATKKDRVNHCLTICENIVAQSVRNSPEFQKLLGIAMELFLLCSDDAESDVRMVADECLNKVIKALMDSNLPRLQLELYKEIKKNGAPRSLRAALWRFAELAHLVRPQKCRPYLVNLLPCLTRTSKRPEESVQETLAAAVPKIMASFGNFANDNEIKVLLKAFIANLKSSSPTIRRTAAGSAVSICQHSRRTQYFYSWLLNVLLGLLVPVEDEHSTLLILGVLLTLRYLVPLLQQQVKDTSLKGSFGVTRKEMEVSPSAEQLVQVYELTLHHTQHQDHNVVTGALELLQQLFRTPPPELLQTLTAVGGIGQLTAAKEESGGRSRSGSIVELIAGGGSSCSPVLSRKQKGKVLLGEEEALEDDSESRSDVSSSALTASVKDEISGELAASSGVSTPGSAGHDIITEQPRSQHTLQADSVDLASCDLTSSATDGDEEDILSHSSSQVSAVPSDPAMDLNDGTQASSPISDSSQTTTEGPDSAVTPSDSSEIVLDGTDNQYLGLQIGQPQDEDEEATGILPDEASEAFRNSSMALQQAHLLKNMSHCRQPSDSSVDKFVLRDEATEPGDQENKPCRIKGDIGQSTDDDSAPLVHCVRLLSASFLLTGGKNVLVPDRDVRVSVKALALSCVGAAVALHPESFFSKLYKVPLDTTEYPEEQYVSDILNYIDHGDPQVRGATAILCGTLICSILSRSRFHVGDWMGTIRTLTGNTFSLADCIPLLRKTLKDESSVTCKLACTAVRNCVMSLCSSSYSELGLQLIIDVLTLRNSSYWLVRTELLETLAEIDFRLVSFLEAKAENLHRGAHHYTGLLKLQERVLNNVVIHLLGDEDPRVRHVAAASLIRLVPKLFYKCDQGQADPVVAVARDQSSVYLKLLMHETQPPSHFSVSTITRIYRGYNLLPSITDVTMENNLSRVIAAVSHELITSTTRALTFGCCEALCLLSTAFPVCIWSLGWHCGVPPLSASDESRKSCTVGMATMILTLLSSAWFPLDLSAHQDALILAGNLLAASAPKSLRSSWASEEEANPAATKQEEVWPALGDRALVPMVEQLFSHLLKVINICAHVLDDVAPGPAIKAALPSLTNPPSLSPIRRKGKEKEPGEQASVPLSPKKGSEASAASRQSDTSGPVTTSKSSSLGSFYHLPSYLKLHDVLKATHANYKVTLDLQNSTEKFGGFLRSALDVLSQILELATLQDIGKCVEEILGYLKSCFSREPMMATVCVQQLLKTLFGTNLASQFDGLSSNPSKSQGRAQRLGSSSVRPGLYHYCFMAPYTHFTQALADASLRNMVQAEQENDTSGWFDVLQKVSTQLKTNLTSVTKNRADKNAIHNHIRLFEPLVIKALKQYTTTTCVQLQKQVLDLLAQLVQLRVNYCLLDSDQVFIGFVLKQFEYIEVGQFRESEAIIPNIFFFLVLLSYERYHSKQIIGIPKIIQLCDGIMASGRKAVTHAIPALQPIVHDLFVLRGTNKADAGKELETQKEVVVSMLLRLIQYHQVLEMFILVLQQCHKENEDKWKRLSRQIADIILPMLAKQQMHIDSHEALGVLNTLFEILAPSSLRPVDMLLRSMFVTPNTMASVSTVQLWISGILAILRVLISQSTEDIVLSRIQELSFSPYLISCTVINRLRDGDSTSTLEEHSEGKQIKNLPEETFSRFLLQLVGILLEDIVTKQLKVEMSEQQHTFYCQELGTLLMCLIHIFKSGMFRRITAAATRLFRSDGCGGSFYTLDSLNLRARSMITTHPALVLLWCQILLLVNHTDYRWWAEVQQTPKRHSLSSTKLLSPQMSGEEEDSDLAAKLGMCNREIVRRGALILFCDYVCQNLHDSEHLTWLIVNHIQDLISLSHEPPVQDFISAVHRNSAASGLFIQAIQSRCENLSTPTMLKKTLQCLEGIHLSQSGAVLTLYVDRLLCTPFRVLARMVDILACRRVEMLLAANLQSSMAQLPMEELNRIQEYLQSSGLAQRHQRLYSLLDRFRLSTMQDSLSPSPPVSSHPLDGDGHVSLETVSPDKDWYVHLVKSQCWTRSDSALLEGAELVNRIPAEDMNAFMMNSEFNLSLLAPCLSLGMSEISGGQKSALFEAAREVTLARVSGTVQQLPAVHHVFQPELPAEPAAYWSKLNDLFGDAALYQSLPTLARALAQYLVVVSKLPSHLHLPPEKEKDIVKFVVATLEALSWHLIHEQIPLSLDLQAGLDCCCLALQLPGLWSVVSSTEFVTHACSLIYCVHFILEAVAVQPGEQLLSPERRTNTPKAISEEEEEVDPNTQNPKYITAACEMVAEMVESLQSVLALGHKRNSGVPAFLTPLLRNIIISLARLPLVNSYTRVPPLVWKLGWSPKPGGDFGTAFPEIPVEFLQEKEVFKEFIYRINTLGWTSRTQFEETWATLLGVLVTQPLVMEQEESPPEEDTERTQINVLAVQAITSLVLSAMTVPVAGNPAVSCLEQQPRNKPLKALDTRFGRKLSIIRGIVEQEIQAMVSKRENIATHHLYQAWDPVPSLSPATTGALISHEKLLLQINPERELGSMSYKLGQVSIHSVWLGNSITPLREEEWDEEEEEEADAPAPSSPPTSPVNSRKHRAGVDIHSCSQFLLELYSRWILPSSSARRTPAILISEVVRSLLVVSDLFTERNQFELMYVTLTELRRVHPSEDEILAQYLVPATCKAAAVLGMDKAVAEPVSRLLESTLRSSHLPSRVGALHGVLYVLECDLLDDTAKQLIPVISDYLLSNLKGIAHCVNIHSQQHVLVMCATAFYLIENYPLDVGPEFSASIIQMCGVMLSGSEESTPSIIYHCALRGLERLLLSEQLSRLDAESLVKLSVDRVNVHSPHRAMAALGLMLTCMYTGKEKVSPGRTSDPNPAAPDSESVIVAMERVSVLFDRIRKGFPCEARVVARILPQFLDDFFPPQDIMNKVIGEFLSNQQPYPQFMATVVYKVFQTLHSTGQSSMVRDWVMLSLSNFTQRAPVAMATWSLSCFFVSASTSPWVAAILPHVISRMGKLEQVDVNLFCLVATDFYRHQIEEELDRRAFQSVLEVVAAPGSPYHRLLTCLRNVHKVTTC

Test system: Huntingtin (Homo sapiens), P42858 [UNDEFINED MUTATION]
Conditions: dose 10.0 nM

## Cc1cc2c(C(C)C)c(O)c(O)c(C=O)c2c(O)c1-c1c(C)cc2c(C(C)C)c(O)c(O)c(C=O)c2c1O
  inhibition: 24%
